# Measured affinities in a library of Ab-91 heavy chain variants

Values reported by Engelhart et al. 2022, doi:10.1038/s41597-022-01779-4 (FLAb copy).

Binding partner: SARS-CoV-2 spike HR2 peptide, sequence PDVDLGDISGINAS.

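In library AAYL51, one, two or three CDR residues were substituted; doubles and triples were drawn at random. The assay is AlphaSeq: two haploid yeast populations carry antibody and antigen on their surface. Mating (16 h, 30 °C) was followed by selection of diploids and sequencing of their barcodes. A regression on co-assayed BCL2-family reference pairs converts the normalised counts of each replicate to an apparent Kd. Mating was done three times.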

Ab-91 is the parent antibody, in scFv form: VL, then a (GGGGS)3 linker, then VH. The light chain is unchanged in all variants.
VL: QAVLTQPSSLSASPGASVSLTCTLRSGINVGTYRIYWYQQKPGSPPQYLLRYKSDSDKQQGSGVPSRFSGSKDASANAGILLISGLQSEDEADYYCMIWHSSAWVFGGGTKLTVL
VH: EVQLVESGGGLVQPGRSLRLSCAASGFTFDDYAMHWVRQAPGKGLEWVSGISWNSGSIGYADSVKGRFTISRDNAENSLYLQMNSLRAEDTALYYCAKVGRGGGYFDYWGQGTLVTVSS

Positions count from residue 1 of the parent VH; D31T puts T in place of D. Every variant below is changed at D62 of the VH (sequential numbering). The read-out is the apparent dissociation constant on a log10 scale (nM): the lower, the stronger. Where no diploid with the target was found in that replicate, the entry reads "n.d.": below detection, most likely a poor binder, though not proof of it.

| changes | log10 Kd, replicates |
|---|---|
| D31T+I51W+D62R | n.d. / n.d. / n.d. |
| M34Q+S52G+D62H | 4.54 / n.d. / n.d. |
| A61G+D62K+Y108G | 2.26 / 2.60 / 1.99 |
| D62P+S63I+G103C | n.d. / n.d. / n.d. |
| D62I | 1.60 / 1.50 / 1.13 |
| F29N+D62R+G100P | n.d. / n.d. / n.d. |
| T28D+H35F+D62V | n.d. / n.d. / n.d. |
| W53L+D62R | 2.87 / 2.89 / 2.74 |
| T28W+H35R+D62P | n.d. / n.d. / n.d. |
| A61C+D62N+G102P | n.d. / n.d. / 3.99 |
| D62T+S63P+K65S | n.d. / n.d. / n.d. |
| Y32D+S57Y+D62S | n.d. / n.d. / n.d. |
| S55C+D62I+V64G | n.d. / n.d. / n.d. |
| M34W+S52C+D62K | n.d. / n.d. / n.d. |
| D62P+V64A+K65N | 4.41 / n.d. / n.d. |
| H35N+D62Q+G102E | 4.04 / n.d. / n.d. |
| F29T+G56I+D62E | 3.94 / 3.33 / 3.60 |
| S52F+D62Q+Y108P | 5.51 / n.d. / n.d. |
| A61R+D62F+F106I | n.d. / n.d. / n.d. |
| A61C+D62H+V64Y | n.d. / n.d. / n.d. |
| H35P+D62F+Y105A | n.d. / n.d. / n.d. |
| D31F+G59Y+D62H | n.d. / n.d. / n.d. |
| A33N+I58H+D62Y | 4.17 / 5.93 / n.d. |
| I58H+D62K+D107H | 2.91 / 3.21 / 3.25 |
| S55G+S57V+D62L | n.d. / n.d. / n.d. |
| D62K+G102V | 4.53 / 5.71 / 4.30 |
| A33I+Y60E+D62K | n.d. / n.d. / n.d. |
| S57V+D62A | 5.50 / n.d. / n.d. |
| H35K+D62T+G103N | n.d. / n.d. / n.d. |
| D62R+G104Q+D107Q | 5.20 / 4.49 / n.d. |
| D62G+G100P | n.d. / n.d. / n.d. |
| F29Q+D31Y+D62R | n.d. / n.d. / n.d. |
| G50A+G59M+D62E | n.d. / n.d. / n.d. |
| F29E+G56Y+D62E | 2.78 / n.d. / n.d. |
| T28S+G56L+D62Q | 1.94 / 1.85 / 1.66 |
| W53A+N54R+D62M | 1.16 / 1.04 / 0.52 |
| G59S+D62T+D107I | 4.85 / n.d. / n.d. |
| A33Y+D62H | 4.97 / 5.64 / 5.84 |
| A33P+W53L+D62H | 4.19 / n.d. / n.d. |
| D62H+G100S+F106P | n.d. / n.d. / n.d. |
| T28N+D62Q | n.d. / n.d. / n.d. |

The first 4 variants above that were never detected:

| changes | log10 Kd, replicates |
|---|---|
| D31T+I51W+D62R | n.d. / n.d. / n.d. |
| D62P+S63I+G103C | n.d. / n.d. / n.d. |
| F29N+D62R+G100P | n.d. / n.d. / n.d. |
| T28D+H35F+D62V | n.d. / n.d. / n.d. |

Three control strains display no target. For library AAYL51, 21% of the pairings with them gave a signal, with a median of 4.54 and one signal in twenty below 3.26, so weak values seen in few replicates may be background. In this assay the parent's reference entry averaged 1.86; its copy inside this library read 0.88.